These molecules were tested against bovine cardiac myosin (Bos taurus, UniProt Q9BE39) (assay: Myosin activation assay (PK/LDH-coupled ATPase, bovine cardiac myofibrils)). Settings: concentration at which the total response is increased by twenty percent.
Procedure: Small molecule agents were assessed for their ability to activate the enzymatic activity of bovine cardiac myosin using a biochemical assay that couples the release of ADP (adenosine diphosphate) from cardiac myosin to an enzymatic coupling system consisting of pyruvate kinase and lactate dehydrogenase (PK/LDH) and monitoring the absorbance decrease of NADH (at 340 nm) as a function of time. PK converts ADP to ATP (adenosine triphosphate) by converting PEP (phosphoenolpyruvate) to pyruvate. Pyruvate is then converted to lactate by LDH by converting NADH (nicotinamide adenine dinucleotide) to NAD (oxidized nicotinamide adenine dinucleotide). The source of cardiac myosin was from bovine heart in the form of skinned myofibrils. Prior to testing small molecule agents, the bovine myofibrils were assessed for their calcium responsiveness and the calcium concentration that achieves either a 50% (pCa50 or pCa = ~ 6) or < 5% (pCa = 10) activation of the myofibril system was chosen as the final condition for assessing the activation activity of the small molecule agents. All enzymatic activity was measured in a buffered solution containing 12 mM PIPES (piperazine-N,N'-bis(2-ethanesulfonic acid), 2 mM magnesium chloride at pH 6.8 (PM12 buffer). Final assay conditions were 1 mg/mL of bovine cardiac myofibrils, 0.4 mM PK/LDH, 50 uM ATP, 0.1 mg/mL BSA (bovine serum albumin), 10 ppm antifoam, 2 mM BME, 0.5 mM NADH, 1.5 mM PEP at the desired free calcium concentration required to achieve either 50% or < 5% activation of the myofibrils.
A dilution series of compound was created in DMSO such that the final desired concentration of compound would be achieved in a volume of 100 µL with a fixed DMSO concentration of 3.3% (v/v). Typically a 1 µL of the dilution series was added to a 384 well plate to achieve a 10 point dose response. Following the addition of 14 µL of a solution containing bovine cardiac myofibrils, PK/LDH and a solution of calcium (that achieved the desired activation), the enzymatic reaction was started with the addition of 15 µL of a solution containing ATP, PEP and NADH. The reaction progress was followed in a PerkinElmer Envision plate reader at ambient temperature using clear bottom plates. The plate reader was configured to read absorbance at 340 nm in kinetics mode for 15 minutes. Data were recorded as the slope of the absorbance response to time. The slopes of the absorbance response as a function of time were normalized to slopes on the plate containing DMSO. This normalized rate was then plotted as a function of small molecule concentration and the data was fitted to a four-parameter fit using EXCEL XLfit. The concentration at which the total response is increased by twenty or fifty percent is reported as AC20 or AC50. […] Table 2. Myosin Activation of Selected Compoundsa

Protein sequences, listed by entry. Tags and fused reporters are not part of them.
UniProt Q9BE39, whole entry: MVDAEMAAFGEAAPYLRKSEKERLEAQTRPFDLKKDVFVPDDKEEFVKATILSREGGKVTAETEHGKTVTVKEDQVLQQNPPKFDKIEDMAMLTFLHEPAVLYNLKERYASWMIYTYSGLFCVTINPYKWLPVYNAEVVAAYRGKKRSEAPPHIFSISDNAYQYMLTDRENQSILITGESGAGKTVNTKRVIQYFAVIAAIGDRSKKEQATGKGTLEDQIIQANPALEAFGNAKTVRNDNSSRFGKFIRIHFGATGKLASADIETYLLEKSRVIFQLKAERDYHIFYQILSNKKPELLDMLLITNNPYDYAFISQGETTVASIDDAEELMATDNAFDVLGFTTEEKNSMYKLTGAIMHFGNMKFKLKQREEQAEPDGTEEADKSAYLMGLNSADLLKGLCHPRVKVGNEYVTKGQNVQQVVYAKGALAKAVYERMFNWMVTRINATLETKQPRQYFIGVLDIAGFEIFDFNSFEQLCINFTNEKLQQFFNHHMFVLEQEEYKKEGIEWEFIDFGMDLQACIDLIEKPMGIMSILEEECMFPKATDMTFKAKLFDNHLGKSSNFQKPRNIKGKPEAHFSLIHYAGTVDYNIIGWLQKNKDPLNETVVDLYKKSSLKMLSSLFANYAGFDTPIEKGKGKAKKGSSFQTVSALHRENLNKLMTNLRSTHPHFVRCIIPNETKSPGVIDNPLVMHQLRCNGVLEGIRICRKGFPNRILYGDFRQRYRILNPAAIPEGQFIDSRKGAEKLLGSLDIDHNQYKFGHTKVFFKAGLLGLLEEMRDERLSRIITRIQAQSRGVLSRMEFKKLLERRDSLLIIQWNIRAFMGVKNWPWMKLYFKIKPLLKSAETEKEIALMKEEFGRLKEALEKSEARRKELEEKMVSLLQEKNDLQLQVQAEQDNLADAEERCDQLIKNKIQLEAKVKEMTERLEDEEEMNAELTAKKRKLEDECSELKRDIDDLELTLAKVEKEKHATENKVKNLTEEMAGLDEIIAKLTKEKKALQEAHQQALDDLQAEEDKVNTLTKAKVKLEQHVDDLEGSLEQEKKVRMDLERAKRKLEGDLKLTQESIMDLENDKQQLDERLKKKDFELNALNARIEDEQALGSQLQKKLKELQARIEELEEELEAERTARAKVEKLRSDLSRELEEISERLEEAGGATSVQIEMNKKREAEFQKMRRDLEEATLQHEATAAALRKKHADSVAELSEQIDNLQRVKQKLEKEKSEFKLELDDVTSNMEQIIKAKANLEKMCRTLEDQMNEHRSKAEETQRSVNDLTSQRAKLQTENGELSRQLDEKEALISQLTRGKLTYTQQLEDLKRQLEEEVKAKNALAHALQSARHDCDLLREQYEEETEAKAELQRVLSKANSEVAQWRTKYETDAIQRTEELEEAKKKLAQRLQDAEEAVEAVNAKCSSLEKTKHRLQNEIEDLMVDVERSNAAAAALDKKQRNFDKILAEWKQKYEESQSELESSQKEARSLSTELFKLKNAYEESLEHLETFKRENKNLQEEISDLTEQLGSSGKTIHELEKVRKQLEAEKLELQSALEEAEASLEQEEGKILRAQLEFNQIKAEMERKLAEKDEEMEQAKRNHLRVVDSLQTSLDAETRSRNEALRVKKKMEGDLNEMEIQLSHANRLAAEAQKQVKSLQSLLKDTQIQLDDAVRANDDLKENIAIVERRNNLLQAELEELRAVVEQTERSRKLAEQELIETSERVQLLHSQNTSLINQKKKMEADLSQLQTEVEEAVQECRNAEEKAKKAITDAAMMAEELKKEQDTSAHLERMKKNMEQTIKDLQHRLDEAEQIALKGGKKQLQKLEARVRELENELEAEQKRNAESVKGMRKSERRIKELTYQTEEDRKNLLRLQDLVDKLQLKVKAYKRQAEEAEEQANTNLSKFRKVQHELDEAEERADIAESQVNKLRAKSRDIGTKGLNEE
UniProt Q3SZE5, whole entry partner: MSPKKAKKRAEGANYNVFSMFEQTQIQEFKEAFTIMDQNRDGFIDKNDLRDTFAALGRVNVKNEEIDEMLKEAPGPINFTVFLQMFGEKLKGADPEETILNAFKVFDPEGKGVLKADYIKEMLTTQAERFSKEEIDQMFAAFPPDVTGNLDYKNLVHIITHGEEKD
UniProt P85100, whole entry partner: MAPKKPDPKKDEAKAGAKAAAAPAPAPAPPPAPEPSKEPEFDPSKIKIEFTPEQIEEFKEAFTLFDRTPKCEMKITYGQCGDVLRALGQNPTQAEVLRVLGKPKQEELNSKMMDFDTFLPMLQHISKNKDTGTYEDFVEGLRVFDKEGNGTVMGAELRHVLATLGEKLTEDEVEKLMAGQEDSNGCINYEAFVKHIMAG

Structure (SMILES) | Myosin Activation (AC20)
CC(F)(C1CCN(C(=O)Nc2ccon2)CC1)S(=O)(=O)c1ccc(C#N)cc1 (stereo not drawn) | ++ (++ represents myosin activation value AC20 from 2 µM - 5 µM)
Cc1nocc1NC(=O)N1CCC(C(C)(F)S(=O)(=O)c2cccc(F)c2)CC1 (stereo not drawn) | + (+ represents myosin activation value AC20 > 5 µM)
CC(F)(C1CCN(C(=O)Nc2ccnc(F)c2)CC1)S(=O)(=O)c1cccc(F)c1 (stereo not drawn) | ++ (++ represents myosin activation value AC20 from 2 µM - 5 µM)
C[C@](F)(C1CCN(C(=O)Nc2cnc3c(c2)CNC3=O)CC1)S(=O)(=O)c1cccc(F)c1 | ++ (++ represents myosin activation value AC20 from 2 µM - 5 µM)
O=C(Nc1ccnnc1)N1CCC(C(F)(F)S(=O)(=O)c2cnn3ccccc23)CC1 | ++ (++ represents myosin activation value AC20 from 2 µM - 5 µM)
Cn1cc(S(=O)(=O)C(C)(C)C2CCN(C(=O)Nc3ccnnc3)CC2)c(C(F)(F)F)n1 | ++ (++ represents myosin activation value AC20 from 2 µM - 5 µM)
O=C(Nc1ccnnc1)N1CCC(C2(S(=O)(=O)c3ccc(OC(F)(F)F)cc3)CC2)CC1 | +++ (+++ represents myosin activation value AC20 < 2 µM)
CC(C)(C1CCN(C(=O)Nc2cncc(F)c2)CC1)S(=O)(=O)c1cccc(F)c1 | ++ (++ represents myosin activation value AC20 from 2 µM - 5 µM)
CC(C)(C1CCN(C(=O)Nc2ccncc2F)CC1)S(=O)(=O)c1cccc(F)c1 | + (+ represents myosin activation value AC20 > 5 µM)
CC(C)(C1CCN(C(=O)Nc2cnoc2)CC1)S(=O)(=O)c1cccc(F)c1 | +++ (+++ represents myosin activation value AC20 < 2 µM)
Cn1nccc1S(=O)(=O)C(C)(F)C1CCN(C(=O)Nc2ccc(F)nc2)CC1 (stereo not drawn) | ++ (++ represents myosin activation value AC20 from 2 µM - 5 µM)
CC(C1CCN(C(=O)Nc2ccncc2)CC1)S(=O)(=O)c1cccc(F)c1 (stereo not drawn) | ++ (++ represents myosin activation value AC20 from 2 µM - 5 µM)
Cn1nccc1S(=O)(=O)C(C)(F)C1CCN(C(=O)Nc2ccnc(F)c2)CC1 (stereo not drawn) | + (+ represents myosin activation value AC20 > 5 µM)
COc1ncccc1S(=O)(=O)C(C)(F)C1CCN(C(=O)Nc2ccnnc2)CC1 (stereo not drawn) | ++ (++ represents myosin activation value AC20 from 2 µM - 5 µM)
Cn1cc(S(=O)(=O)C(C)(F)C2CCN(C(=O)Nc3ccon3)CC2)c(Cl)n1 (stereo not drawn) | + (+ represents myosin activation value AC20 > 5 µM)
Cc1cc(C#N)ccc1S(=O)(=O)C(C)(C)C1CCN(C(=O)Nc2ccnnc2)CC1 | ++ (++ represents myosin activation value AC20 from 2 µM - 5 µM)
Cc1cc(NC(=O)N2CCC(C(C)(F)S(=O)(=O)c3cccc(F)c3)CC2)cnn1 (stereo not drawn) | + (+ represents myosin activation value AC20 > 5 µM)
CC(C)(C1CCN(C(=O)Nc2ccon2)CC1)S(=O)(=O)c1cccc(C#N)c1 | ++ (++ represents myosin activation value AC20 from 2 µM - 5 µM)
Cn1nc(C(F)(F)F)cc1S(=O)(=O)[C@](C)(F)C1CCN(C(=O)Nc2ccon2)CC1 | + (+ represents myosin activation value AC20 > 5 µM)
CC(C)(C1CCN(C(=O)Nc2cc[nH]n2)CC1)S(=O)(=O)c1cccc(F)c1 | + (+ represents myosin activation value AC20 > 5 µM)
O=C(Nc1ccnnc1)N1CCC(C(F)(F)S(=O)(=O)c2ccccc2CO)CC1 | ++ (++ represents myosin activation value AC20 from 2 µM - 5 µM)
Cn1nccc1S(=O)(=O)C(C)(C)C1CCN(C(=O)Nc2cnns2)CC1 | +++ (+++ represents myosin activation value AC20 < 2 µM)
CC(C)(C1CCN(C(=O)Nc2cccnc2)CC1)S(=O)(=O)c1cccc(F)c1 | ++ (++ represents myosin activation value AC20 from 2 µM - 5 µM)
Cn1cc(S(=O)(=O)C(F)(F)C2CCN(C(=O)Nc3ccon3)CC2)c(C(F)F)n1 | + (+ represents myosin activation value AC20 > 5 µM)
Cn1cc(S(=O)(=O)C2(C3CCN(C(=O)Nc4ccnnc4)CC3)CCC2)c(C(F)F)n1 | +++ (+++ represents myosin activation value AC20 < 2 µM)
Cn1nc(C(F)(F)F)cc1S(=O)(=O)C(C)(F)C1CCN(C(=O)Nc2ccnnc2)CC1 (stereo not drawn) | +++ (+++ represents myosin activation value AC20 < 2 µM)

Structure (SMILES) | Myosin Activation (AC20)
Cc1ccc(NC(=O)N2CCC(C(C)(C)S(=O)(=O)c3cccc(F)c3)CC2)cn1 | + (+ represents myosin activation value AC20 > 5 µM)
CC(C)(C1CCN(C(=O)Nc2ccc(Cl)nc2)CC1)S(=O)(=O)c1cccc(F)c1 | ++ (++ represents myosin activation value AC20 from 2 µM - 5 µM)
Cc1cc(NC(=O)N2CCC([C@](C)(F)S(=O)(=O)c3cn(C)nc3C(F)F)CC2)ccn1 | +++ (+++ represents myosin activation value AC20 < 2 µM)
O=C(Nc1ccnnc1)N1CCC(C(F)(F)S(=O)(=O)c2cc(OC(F)(F)F)ccc2Cl)CC1 | +++ (+++ represents myosin activation value AC20 < 2 µM)
CC(F)(C1CCN(C(=O)Nc2ccnnc2)CC1)S(=O)(=O)c1ccccc1C#N (stereo not drawn) | +++ (+++ represents myosin activation value AC20 < 2 µM)
CC(F)(C1CCN(C(=O)Nc2nnco2)CC1)S(=O)(=O)c1cccc(F)c1 (stereo not drawn) | + (+ represents myosin activation value AC20 > 5 µM)
CC(F)(C1CCN(C(=O)Nc2cnns2)CC1)S(=O)(=O)c1cccc(F)c1 (stereo not drawn) | +++ (+++ represents myosin activation value AC20 < 2 µM)
CC(C)(C1CCN(C(=O)Nc2ccc(F)nc2)CC1)S(=O)(=O)c1ccc(C(F)(F)F)nc1 | + (+ represents myosin activation value AC20 > 5 µM)
Cn1cc(S(=O)(=O)[C@@](C)(F)C2CCN(C(=O)Nc3ccnc(C#N)c3)CC2)c(C(F)F)n1 | ++ (++ represents myosin activation value AC20 from 2 µM - 5 µM)
COc1cccc(S(=O)(=O)C(F)(F)C2CCN(C(=O)Nc3ccnnc3)CC2)c1Cl | ++ (++ represents myosin activation value AC20 from 2 µM - 5 µM)
Cn1cnc(S(=O)(=O)C(C)(C)C2CCN(C(=O)Nc3ccnnc3)CC2)c1 | + (+ represents myosin activation value AC20 > 5 µM)
COc1ccc(S(=O)(=O)[C@@](C)(F)C2CCN(C(=O)Nc3ccon3)CC2)cn1 | ++ (++ represents myosin activation value AC20 from 2 µM - 5 µM)
Cn1cc(S(=O)(=O)[C@](C)(F)C2CCN(C(=O)Nc3ccnc(F)c3)CC2)c(C(F)F)n1 | + (+ represents myosin activation value AC20 > 5 µM)
CC(C)(C1CCN(C(=O)Nc2ccnnc2)CC1)S(=O)(=O)c1ccc(C(F)(F)F)cc1 | ++ (++ represents myosin activation value AC20 from 2 µM - 5 µM)
N#Cc1ccccc1S(=O)(=O)C(F)(F)C1CCN(C(=O)Nc2ccnnc2)CC1 | ++ (++ represents myosin activation value AC20 from 2 µM - 5 µM)
CC(F)(C1CCN(C(=O)Nc2ccnnc2)CC1)S(=O)(=O)c1ccccc1C(F)(F)F (stereo not drawn) | ++ (++ represents myosin activation value AC20 from 2 µM - 5 µM)
Cn1nc(Cl)cc1S(=O)(=O)C(C)(C)C1CCN(C(=O)Nc2ccon2)CC1 | +++ (+++ represents myosin activation value AC20 < 2 µM)
CC(C)(C1CCN(C(=O)Nc2ccnnc2)CC1)S(=O)(=O)c1cccc(F)c1 | +++ (+++ represents myosin activation value AC20 < 2 µM)
Cn1cc(S(=O)(=O)C(C)(C)C2CCN(C(=O)Nc3ccc(F)nc3)CC2)c(C(F)(F)F)n1 | ++ (++ represents myosin activation value AC20 from 2 µM - 5 µM)
CC(F)(C1CCN(C(=O)Nc2ccon2)CC1)S(=O)(=O)c1ccc(C(F)(F)F)cc1 (stereo not drawn) | +++ (+++ represents myosin activation value AC20 < 2 µM)
O=C(Nc1ccnnc1)N1CCC(C(F)(F)S(=O)(=O)c2ccc(-n3cncn3)cc2)CC1 | ++ (++ represents myosin activation value AC20 from 2 µM - 5 µM)
O=C(Nc1ccnnc1)N1CCC(C(F)(F)S(=O)(=O)c2ccc(O)nc2)CC1 | + (+ represents myosin activation value AC20 > 5 µM)
Cc1cc(S(=O)(=O)C(C)(C)C2CCN(C(=O)Nc3cnns3)CC2)n(C)n1 | +++ (+++ represents myosin activation value AC20 < 2 µM)
CC(C)(C1CCN(C(=O)Nc2ccnc(F)c2)CC1)S(=O)(=O)c1cccc(F)c1 | ++ (++ represents myosin activation value AC20 from 2 µM - 5 µM)
Cc1cc(S(=O)(=O)C(F)(F)C2CCN(C(=O)Nc3ccnnc3)CC2)n(C2CC2)n1 | + (+ represents myosin activation value AC20 > 5 µM)

— EP4847505A1, “4-METHYLSULFONYL-SUBSTITUTED PIPERIDINE UREA COMPOUNDS” (dated 2026)
